AlphaSeq binding of Ab-91 heavy chain variants to a spike HR2 peptide

From the AlphaSeq antibody data of Engelhart et al. 2022 (doi:10.1038/s41597-022-01779-4), copy in the FLAb collection.

The target is the same throughout: PDVDLGDISGINAS, from the HR2 region of SARS-CoV-2 spike.

The variants keep the light chain, the linker and the frameworks of Ab-91 (scFv order VL, three GGGGS repeats, VH).
VL: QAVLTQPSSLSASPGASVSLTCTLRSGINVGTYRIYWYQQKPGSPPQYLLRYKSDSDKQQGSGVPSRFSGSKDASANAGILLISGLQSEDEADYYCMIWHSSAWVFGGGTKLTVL
VH: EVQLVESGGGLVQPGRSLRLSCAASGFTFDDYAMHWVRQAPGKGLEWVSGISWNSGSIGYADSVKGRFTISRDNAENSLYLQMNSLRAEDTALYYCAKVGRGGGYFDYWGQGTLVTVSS

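The parent was found by panning a naive human phage display library on the peptide. In library AAYL51, one, two or three CDR residues were substituted; doubles and triples were drawn at random. The scFvs were displayed on barcoded MATa yeast, the peptide on MATalpha yeast. Mating (16 h, 30 °C) was followed by selection of diploids and sequencing of their barcodes. The ratio of observed to expected reads was calibrated, replicate by replicate, on BCL2-family standards whose Kd was known from biolayer interferometry. There are three technical replicates.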

Changes read parent residue, position, new residue, counted from the first residue of the VH shown.
All variants listed here change I51 of the VH, counted from its first residue.
The Kd shown is the geometric mean over detected replicates; a lower Kd is a better binder.
Where no diploid with the target was found in any replicate, the entry reads "nd": below detection, most likely a poor binder, though not proof of it.
Background: pairings of library AAYL51 with three empty control strains gave a value in 21% of cases (median 34 µM, 5th percentile 1.8 µM). Values in that range, when seen in few replicates, are hard to tell from nonspecific mating.
In this assay the parent's reference entry averaged 72 nM; its copy inside this library read 7.5 nM.

* D30E/I51F/N54H = nd (0 of 3 replicates)
* I51H/S55G/F106M = nd (0 of 3 replicates)
* G50Q/I51Y = 160 µM (1 of 3 replicates)
* D30A/I51G/G56I = 3.2 µM (1 of 3 replicates)
* I51V/S55T/S63T = 970 nM (1 of 3 replicates)
* I51R/W53T/N54D = nd (0 of 3 replicates)
* I51F/V64A = 68 µM (1 of 3 replicates)
* F29Q/I51L/S63W = 22 µM (2 of 3 replicates)
* F29V/H35A/I51Y = nd (0 of 3 replicates)
* I51P/S52K/Y60D = 28 µM (2 of 3 replicates)
* I51W/N54A/V99S = nd (0 of 3 replicates)
* I51P/G59E/V64H = 450 µM (1 of 3 replicates)
* G50S/I51F/W53E = 180 µM (1 of 3 replicates)
* I51F/S52V/G104I = nd (0 of 3 replicates)
* I51V/V64Q/V99C = nd (0 of 3 replicates)
* I51D/W53K/G103F = 23 µM (2 of 3 replicates)
* I51N/Y60C = 29 µM (1 of 3 replicates)
* Y32M/I51D/A61M = 39 µM (2 of 3 replicates)
* I51C/W53C/G100Q = 14 µM (1 of 3 replicates)
* F27Y/I51A/S57Y = 160 µM (1 of 3 replicates)
* D30L/I51D/S55R = nd (0 of 3 replicates)
* I51P/G100Q = 37 µM (2 of 3 replicates)
* I51M/V64Y/Y108V = 9.6 µM (1 of 3 replicates)
* I51T/I58S/S63P = 160 µM (3 of 3 replicates)
* A33L/I51Q/S57Y = nd (0 of 3 replicates)
* I51Q/Y60K/V64D = nd (0 of 3 replicates)
* D30K/M34L/I51V = 14 µM (3 of 3 replicates)
* Y32I/I51A/G100Q = 25 µM (1 of 3 replicates)
* M34H/I51N/Y105C = nd (0 of 3 replicates)
* I51A/N54S = 17 µM (2 of 3 replicates)
* I51T/V64N/G102N = nd (0 of 3 replicates)
* F29K/A33W/I51C = 45 µM (1 of 3 replicates)
* I51Q/V99S/Y108L = 160 µM (1 of 3 replicates)
* T28S/I51K/G100P = 450 µM (3 of 3 replicates)
* H35E/I51Q = nd (0 of 3 replicates)
* I51S/S63F/K65Y = nd (0 of 3 replicates)
* G50I/I51D/S52T = 340 µM (1 of 3 replicates)
* F27P/I51H/G104T = nd (0 of 3 replicates)
* A33G/I51L/G104A = 44 µM (3 of 3 replicates)
* F27I/I51V = nd (0 of 3 replicates)

Top 4 of the variants detected in all replicates, tightest first:

changes,apparent Kd,replicates with signal
D30K/M34L/I51V,14 µM,3/3
A33G/I51L/G104A,44 µM,3/3
I51T/I58S/S63P,160 µM,3/3
T28S/I51K/G100P,450 µM,3/3